This note sets out measurements from ChEMBL document CHEMBL5108015, “4,6-Disubstituted-1H-Indazole-4-Amine derivatives with immune-chemotherapy effect and in vivo antitumor activity” (Eur J Med Chem, 2022).

The species named for the assay is Homo sapiens. The experiment in a line: Selectivity index, ratio of IC50 for inhibition of TDO in HEK293-A cells transfected with pCMV-TDO2 to inhibition of IDO in human HeLa cells. The class given is cell-based.

`Cc1ccc(CNc2cc(C(F)(F)F)cc3[nH]ncc23)c([N+](=O)O)c1`: the Ratio was 100.
